pIC50: −log10 of the molar value.
Molecular target: T1, Ros-G2032R (Homo sapiens, UniProt P08922, G2032R)
T1 construct: purchased Reaction Biology Corp
Assay: Kinase inhibitory activity (33P-ATP filtration-binding, Reaction Biology Corp.)
Format: biochemical
Details: read-out: Half Inhibitory Concentrations of Kinases IC50, Ros-G2032R

By UniProt entry, the sequences of proteins in these tests, tags left out. Residues count along the entry.
UniProt P08922, 28-2347 G2032R: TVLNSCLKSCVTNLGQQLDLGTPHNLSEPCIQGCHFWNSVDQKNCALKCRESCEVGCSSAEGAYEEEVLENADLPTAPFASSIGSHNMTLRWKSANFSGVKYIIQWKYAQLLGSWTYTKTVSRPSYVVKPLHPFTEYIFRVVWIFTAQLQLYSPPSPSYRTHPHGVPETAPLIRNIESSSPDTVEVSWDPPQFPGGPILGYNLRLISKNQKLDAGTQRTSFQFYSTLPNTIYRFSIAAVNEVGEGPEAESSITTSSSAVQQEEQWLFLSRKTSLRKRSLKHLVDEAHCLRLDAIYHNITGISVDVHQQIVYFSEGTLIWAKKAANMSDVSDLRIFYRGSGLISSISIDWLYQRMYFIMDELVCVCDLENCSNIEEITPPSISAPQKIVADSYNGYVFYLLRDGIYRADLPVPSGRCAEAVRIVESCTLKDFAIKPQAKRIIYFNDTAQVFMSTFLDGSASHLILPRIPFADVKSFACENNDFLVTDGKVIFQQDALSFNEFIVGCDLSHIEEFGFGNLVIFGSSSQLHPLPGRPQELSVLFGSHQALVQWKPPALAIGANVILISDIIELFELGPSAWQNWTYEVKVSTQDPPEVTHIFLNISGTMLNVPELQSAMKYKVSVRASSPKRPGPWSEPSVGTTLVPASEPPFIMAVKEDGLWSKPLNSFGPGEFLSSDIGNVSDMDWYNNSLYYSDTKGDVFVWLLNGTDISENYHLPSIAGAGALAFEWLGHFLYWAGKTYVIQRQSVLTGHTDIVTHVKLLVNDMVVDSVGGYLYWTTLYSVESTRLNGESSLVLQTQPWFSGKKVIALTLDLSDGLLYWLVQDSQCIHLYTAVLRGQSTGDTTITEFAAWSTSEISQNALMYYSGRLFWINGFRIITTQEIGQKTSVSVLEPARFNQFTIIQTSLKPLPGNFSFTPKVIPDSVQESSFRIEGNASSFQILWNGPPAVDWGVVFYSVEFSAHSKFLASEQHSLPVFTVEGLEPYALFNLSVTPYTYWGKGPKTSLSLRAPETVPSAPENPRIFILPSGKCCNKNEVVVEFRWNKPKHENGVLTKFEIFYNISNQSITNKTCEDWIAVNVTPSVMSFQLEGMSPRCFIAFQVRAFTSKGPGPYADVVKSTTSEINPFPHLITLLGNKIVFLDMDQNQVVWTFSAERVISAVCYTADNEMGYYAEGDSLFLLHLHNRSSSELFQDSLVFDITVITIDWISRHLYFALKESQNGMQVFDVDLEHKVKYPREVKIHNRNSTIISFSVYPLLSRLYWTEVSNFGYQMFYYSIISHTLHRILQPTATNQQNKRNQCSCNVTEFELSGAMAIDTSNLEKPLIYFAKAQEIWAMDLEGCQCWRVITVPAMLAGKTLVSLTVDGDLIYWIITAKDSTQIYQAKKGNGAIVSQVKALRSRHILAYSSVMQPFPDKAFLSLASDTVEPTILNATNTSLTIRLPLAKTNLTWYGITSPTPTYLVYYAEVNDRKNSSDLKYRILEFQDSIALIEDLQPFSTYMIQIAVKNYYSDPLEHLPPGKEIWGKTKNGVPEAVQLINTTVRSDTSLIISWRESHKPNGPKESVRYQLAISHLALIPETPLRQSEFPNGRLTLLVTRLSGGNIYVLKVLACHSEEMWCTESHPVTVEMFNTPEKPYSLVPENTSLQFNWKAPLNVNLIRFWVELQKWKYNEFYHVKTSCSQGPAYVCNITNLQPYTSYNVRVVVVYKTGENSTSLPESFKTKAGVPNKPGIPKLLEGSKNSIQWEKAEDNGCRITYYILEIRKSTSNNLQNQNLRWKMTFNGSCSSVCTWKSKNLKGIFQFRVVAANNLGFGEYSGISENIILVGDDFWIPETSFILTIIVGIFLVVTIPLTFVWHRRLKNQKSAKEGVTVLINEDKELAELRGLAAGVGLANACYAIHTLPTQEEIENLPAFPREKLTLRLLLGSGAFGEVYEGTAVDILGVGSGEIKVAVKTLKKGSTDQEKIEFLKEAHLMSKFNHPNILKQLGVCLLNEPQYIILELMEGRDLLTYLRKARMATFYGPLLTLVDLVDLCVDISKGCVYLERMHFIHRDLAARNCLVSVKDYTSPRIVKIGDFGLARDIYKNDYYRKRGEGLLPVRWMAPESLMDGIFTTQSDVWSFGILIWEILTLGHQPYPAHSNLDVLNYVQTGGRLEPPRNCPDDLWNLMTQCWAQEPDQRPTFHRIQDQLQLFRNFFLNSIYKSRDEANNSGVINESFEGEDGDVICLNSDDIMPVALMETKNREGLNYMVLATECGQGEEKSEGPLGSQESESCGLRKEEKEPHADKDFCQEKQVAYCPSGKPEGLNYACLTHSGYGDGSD

- pIC50: 8.54
Compound: C[C@@H]1CCc2ncc(F)cc2[C@H]2CCCN2c2ccn3ncc(c3n2)C(=O)N1 [LOXO-195, reference compound]
